Tested on: CT26 cells
Test: Cellular uptake of FITC-labeled albumin with endocytosis inhibitors
Type: cell-based, murine (Balb/c)
Conditions: 1 h inhibitor pretreatment, uptake after 3 h

CN(C)CCCN1c2ccccc2Sc2ccc(Cl)cc21 [CHP, chlorpromazine]
impact on uptake of FITC-labeled albumin: significantly reduced
